# Assay results taken from PubChem BioAssay AID602182 (The Scripps Research Institute Molecular Screening Center, 2012).
# Only a part is listed here, and it is no random draw. The source made the active and inactive calls. No rule for the calls is given here.
# Test: quenching of GFP signal – biochemical, fluorescence, artefact control for Rin1-Abl interaction inhibitor project, dose response (AID 602182);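 also: ABL1-eGFP fusion protein alone without its RIN1 binding partner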
# Conditions: GFP fluorescence interference/quenching counterscreen
smiles,measurement,value
COc1cccc(C(c2nnnn2C2CCCCC2)N2CCC(n3c(=O)[nH]c4ccccc43)CC2)c1OC (stereo unspecified),IC50,inactive: > 67.5 µM
